This assay concerns the target T1, Tyrosine-protein kinase receptor UFO (Homo sapiens, UniProt P30530).
T1 sequence (P30530 whole entry): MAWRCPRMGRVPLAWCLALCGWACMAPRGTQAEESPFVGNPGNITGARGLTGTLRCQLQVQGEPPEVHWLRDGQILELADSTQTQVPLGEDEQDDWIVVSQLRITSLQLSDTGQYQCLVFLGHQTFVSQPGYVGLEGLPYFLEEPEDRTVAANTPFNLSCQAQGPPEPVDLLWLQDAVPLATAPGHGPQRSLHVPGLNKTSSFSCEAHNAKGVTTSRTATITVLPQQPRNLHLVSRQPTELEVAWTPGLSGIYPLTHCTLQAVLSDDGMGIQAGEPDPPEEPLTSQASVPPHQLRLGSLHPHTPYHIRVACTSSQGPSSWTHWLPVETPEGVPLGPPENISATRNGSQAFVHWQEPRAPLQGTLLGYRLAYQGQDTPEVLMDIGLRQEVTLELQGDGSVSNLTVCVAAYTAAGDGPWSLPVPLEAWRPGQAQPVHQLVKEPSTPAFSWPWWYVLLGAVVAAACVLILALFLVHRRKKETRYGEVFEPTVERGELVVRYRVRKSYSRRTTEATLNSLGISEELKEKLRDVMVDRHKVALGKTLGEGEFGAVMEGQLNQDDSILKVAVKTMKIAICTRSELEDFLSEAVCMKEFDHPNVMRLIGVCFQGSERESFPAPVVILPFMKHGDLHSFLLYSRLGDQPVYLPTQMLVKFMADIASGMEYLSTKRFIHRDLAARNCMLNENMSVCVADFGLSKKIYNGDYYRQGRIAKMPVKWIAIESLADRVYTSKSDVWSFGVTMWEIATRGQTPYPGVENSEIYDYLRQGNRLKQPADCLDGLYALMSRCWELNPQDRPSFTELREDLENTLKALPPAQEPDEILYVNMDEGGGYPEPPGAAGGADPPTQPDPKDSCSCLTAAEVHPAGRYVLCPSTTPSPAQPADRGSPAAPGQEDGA
Description: Inhibition of human Axl using KKSRGDYMTMQIG as substrate incubated for 40 mins in the presence of [gamma33P]ATP by scintillation counting analysis.

pIC50: −log10 of the molar value.

The pIC50 is the negative decadic logarithm of the IC50, by convention in mol/L. For the compound `CN1CCN(Cc2ccc(Nc3ncc(Cl)c(Nc4ccccc4S(=O)(=O)N(C)C)n3)cc2)CC1` [DUBERMATINIB], the pIC50 was 7.82.

(Values after ChEMBL document CHEMBL5108089, “Structure-based discovery of potent inhibitors of Axl: design, synthesis, and biological evaluation” (RSC Med Chem, 2022).)
